# Reference: publication PMC7047575 (The AAPS journal, 2018)
# Chains of the proteins cited; added tags and fusions are not shown. Lines headed by an entry give the natural chain unless they say otherwise; changes in a name come on top. Residues count along the entry.
# UniProt P31652, whole entry: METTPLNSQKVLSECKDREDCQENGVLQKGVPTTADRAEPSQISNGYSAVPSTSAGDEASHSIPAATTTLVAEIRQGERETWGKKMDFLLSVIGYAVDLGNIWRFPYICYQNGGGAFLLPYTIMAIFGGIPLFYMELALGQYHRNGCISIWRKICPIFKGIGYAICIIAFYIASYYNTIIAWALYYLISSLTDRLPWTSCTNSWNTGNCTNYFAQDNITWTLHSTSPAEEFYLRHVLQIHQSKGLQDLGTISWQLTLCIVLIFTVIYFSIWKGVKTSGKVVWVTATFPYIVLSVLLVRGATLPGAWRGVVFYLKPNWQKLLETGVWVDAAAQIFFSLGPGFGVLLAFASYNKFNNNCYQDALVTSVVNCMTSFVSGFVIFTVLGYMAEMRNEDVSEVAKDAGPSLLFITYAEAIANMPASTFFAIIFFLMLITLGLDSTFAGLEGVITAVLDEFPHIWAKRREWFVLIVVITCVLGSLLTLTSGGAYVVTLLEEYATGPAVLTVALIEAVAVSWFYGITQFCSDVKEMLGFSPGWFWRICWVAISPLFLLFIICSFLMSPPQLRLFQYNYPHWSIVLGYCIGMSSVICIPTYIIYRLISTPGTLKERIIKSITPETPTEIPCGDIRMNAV
# UniProt Q01827, whole entry: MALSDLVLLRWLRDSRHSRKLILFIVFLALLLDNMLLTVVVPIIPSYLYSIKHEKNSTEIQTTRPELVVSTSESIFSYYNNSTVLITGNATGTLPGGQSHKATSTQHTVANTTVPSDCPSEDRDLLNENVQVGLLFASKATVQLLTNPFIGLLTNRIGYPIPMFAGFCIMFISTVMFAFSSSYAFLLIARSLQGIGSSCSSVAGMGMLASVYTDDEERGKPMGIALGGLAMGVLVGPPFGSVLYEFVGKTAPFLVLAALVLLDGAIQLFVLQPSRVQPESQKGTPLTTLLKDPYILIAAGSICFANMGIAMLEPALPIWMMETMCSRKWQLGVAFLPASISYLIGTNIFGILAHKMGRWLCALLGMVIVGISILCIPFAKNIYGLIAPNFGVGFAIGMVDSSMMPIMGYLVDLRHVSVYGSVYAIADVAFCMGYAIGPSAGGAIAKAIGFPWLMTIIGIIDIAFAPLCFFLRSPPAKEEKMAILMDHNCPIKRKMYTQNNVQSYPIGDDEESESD
# UniProt P23977, whole entry: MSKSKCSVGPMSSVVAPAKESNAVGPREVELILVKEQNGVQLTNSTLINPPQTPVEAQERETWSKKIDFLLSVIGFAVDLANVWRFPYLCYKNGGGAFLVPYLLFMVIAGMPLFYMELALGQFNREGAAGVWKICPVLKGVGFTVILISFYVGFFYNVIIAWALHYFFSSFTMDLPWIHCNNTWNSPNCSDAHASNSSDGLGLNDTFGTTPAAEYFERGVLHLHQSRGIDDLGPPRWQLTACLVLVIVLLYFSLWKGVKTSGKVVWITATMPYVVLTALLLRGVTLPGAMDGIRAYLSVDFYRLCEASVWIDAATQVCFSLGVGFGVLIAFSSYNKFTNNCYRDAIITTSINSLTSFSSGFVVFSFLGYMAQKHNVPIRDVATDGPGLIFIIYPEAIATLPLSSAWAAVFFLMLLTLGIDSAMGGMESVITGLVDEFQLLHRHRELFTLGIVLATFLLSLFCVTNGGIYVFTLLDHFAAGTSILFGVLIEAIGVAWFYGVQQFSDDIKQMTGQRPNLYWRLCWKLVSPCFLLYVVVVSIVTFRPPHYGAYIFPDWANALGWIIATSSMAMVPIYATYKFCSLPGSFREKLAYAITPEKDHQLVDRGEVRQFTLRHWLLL
# UniProt P09483, 31-630: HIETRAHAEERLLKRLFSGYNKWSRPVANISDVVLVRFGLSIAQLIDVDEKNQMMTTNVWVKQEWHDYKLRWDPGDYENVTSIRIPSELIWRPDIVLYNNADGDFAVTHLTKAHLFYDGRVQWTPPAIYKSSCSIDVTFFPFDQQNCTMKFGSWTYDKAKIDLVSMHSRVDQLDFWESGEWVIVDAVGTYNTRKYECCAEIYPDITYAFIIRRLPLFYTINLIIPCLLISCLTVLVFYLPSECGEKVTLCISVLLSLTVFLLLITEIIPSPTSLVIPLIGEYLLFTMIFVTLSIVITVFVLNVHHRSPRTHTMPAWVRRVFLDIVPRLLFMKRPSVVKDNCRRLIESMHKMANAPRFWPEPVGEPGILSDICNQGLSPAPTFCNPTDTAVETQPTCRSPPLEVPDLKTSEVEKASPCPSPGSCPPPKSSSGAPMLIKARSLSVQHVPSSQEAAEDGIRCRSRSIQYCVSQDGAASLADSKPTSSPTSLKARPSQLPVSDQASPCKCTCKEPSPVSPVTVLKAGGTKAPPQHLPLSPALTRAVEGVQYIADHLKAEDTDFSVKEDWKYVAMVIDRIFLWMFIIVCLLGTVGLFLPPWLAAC
# UniProt P12390, 25-500: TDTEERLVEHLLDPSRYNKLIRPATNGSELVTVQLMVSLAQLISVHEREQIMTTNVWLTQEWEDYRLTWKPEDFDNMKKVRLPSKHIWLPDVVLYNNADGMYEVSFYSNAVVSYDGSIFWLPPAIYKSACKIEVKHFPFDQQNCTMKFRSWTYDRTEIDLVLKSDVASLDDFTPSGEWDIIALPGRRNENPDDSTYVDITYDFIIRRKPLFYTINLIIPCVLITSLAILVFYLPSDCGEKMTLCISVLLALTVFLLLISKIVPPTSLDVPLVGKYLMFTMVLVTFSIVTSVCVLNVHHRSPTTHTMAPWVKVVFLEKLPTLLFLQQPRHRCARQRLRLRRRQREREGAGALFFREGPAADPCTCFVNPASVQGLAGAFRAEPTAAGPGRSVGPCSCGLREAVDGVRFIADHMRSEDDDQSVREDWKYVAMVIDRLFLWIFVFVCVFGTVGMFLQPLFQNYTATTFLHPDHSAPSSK
# UniProt Q12809: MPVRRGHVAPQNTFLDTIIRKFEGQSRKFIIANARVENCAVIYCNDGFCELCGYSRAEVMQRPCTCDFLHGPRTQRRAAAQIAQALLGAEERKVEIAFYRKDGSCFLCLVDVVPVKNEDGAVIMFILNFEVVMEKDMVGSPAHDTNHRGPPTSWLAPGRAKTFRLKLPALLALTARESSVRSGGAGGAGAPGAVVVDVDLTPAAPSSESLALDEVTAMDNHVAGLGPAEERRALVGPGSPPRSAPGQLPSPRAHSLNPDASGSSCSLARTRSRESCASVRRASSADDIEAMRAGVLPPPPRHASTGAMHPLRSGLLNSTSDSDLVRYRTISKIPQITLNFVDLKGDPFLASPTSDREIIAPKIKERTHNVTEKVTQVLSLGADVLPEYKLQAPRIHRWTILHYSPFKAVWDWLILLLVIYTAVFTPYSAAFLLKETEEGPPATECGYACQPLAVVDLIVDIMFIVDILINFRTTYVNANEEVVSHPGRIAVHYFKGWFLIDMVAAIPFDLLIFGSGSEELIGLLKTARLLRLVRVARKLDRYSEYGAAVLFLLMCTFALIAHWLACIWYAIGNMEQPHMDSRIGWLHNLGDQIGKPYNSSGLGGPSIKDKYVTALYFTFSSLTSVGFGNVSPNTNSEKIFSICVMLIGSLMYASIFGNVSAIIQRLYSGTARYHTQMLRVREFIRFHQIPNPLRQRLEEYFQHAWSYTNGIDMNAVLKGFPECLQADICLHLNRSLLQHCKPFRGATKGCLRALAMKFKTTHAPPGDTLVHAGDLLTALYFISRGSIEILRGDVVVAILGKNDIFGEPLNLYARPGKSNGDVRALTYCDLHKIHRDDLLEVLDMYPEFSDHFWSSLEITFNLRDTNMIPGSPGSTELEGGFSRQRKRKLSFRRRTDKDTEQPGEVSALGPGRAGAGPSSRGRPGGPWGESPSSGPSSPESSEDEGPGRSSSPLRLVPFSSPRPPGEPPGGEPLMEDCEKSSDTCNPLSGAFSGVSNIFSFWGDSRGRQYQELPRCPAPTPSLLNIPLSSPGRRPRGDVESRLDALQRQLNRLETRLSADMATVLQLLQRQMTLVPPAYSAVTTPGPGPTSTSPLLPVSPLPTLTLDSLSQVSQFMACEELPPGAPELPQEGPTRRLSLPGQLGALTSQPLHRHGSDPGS
# “And” between values parts separate entries of the source, which are not always exact repeats. Identical values can stand only once.
# Legend:
# [1] = test system: METH-sensitized locomotor activity; assay: METH-induced hyperactivity in METH-sensitized rats, GZ-11610 oral; assay type: in vivo, rat
# SERT = SERT (Rattus norvegicus, UniProt P31652); assay: Synaptosomal [3H]5-HT uptake, rat striatal synaptosomes; assay type: biochemical; details: ratio of Ki values
# VMAT2 = VMAT2 (Rattus norvegicus, UniProt Q01827); assay: Vesicular [3H]DA uptake, rat striatal synaptic vesicles; assay type: biochemical; details: overall statement
# DAT = DAT (Rattus norvegicus, UniProt P23977); assay: Synaptosomal [3H]DA uptake, rat striatal synaptosomes; assay type: biochemical; details: ratio of Ki values
# α4β2 nAChRs = α4β2 nAChRs (Rattus norvegicus, UniProt P09483+P12390); assay: [3H]NIC binding to rat brain membranes; details: discussion statement
# [2] = target: hERG channels (selectivity for VMAT2 over hERG) (Homo sapiens, UniProt Q12809); assay: [3H]Dofetilide binding to hERG channels on HEK-293 cell membranes; details: human, pH 7.4
# hERG channels = hERG channels (Homo sapiens, UniProt Q12809); assay: as above; details: discussion statement
# [3] = test system: METH-sensitized locomotor activity; assay: METH-induced hyperactivity in METH-sensitized rats, GZ-11610 s.c.; assay type: in vivo, rat; details: Tukey's test, p < 0.05
# [4] = decrease of METH-sensitized locomotor activity
smiles,measurement,setting,value
"COc1ccc(CCCN[C@H](C)Cc2ccccc2)cc1 [GZ-11610, R-3-(4-methoxyphenyl)-N-(1-phenylpropan-2-yl)propan-1-amine]",dose required following oral relative to s.c. administration,[1]; [4],approximately 10 fold
same,maximal effect after oral administration relative to s.c. administration,[1]; [4],about 50%
same,doses different from vehicle in the METH group (reduced distance traveled),"[1]; oral, Tukey's test, p < 0.05",56 mg/kg and 56 to 300 mg/kg
same,selectivity for VMAT2 over SERT,SERT,637 fold
same,"selectivity for VMAT2 over DAT, SERT, hERG, and α4β2 and α7 nAChRs",VMAT2,greater than two-orders of magnitude
same,selectivity for VMAT2 over DAT,DAT,290 fold and 288 fold
same,selectivity for VMAT2 over nicotinic receptor subtypes (α4β2 and α7),α4β2 nAChRs,greater than 4 orders of magnitude
same,selectivity ratio at 60 min,[2],> 1000
same,selectivity for VMAT2 over hERG,hERG channels,4 orders of magnitude
same,doses different from vehicle in the METH group (reduced distance traveled),[3],3 to 30 mg/kg
